Source: PubChem BioAssay AID504408 (Broad Institute, 2011)
This is a selection; strong and weak results do not stand in their true shares. Calls of active or inactive are those of the source.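 How the source made its calls: active means mean replicate activation of at least 50% with a set share of replicates each reaching 50%; inconclusive means only one of those two conditions met; inactive means mean below 50% and too few replicates reaching it.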

Experiment: HSF-1 response element luciferase induction – NIH3T3-HGL cells, MG132 stress, luminescence, single point, primary screen (AID 504408);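 further: 0% = median of the neutral control wells and 100% = twice that signal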
Conditions: NIH3T3-HGL HSF-1 luciferase reporter, MG132, 8 h; at 9 µM; active compounds read high; 100% = twice DMSO control signal

| Structure (SMILES) | activation |
| --- | --- |
| COc1ccc(CN(CCCl)CCCl)cc1Cl | inactive: -14.2% |
| CN(C)c1cccc(C(=O)NCC2(N3CCCCC3)CCCCC2)c1 | inactive: -15.3% |
| CC(C)c1ccc(NC2CCN(C(=O)OC(C)(C)C)CC2)cc1 | inactive: -7.66% |
| COc1cc(OC)c(C(=O)NCC2(N(C)C)CCCCC2)cc1OC | inactive: -2.24% |
| CN1CCC(Nc2cccc(F)c2)CC1 | inactive: -7.28% |
| CCCOc1ccc(C(=O)NCC2(N(C)C)CCCCC2)cc1OC | inactive: 4.17% |
| O=C(NCC1(N2CCCCC2)CCCCC1)c1ccc(OC(F)F)cc1 | inactive: -7.46% |
| O=C(NCC1(N2CCCCC2)CCCCC1)c1cccc([N+](=O)[O-])c1 | inactive: -12.6% |
| CCN1CCC(Nc2ccc(Cl)cc2)CC1 | inactive: -15.1% |
| N#CC1(Nc2ccccc2)CCN(CCc2ccccc2)CC1 | inactive: -12.4% |
| O=C(NCC1(N2CCCCC2)CCCCC1)c1cccc(C(F)(F)F)c1 | inactive: 6.02% |
| CN1CCN(CCOC(=O)C(O)(c2ccccc2)c2ccccc2)CC1 | inactive: 24.7% |
| COc1ccc(NC2CCN(C(=O)OC(C)(C)C)CC2)cc1 | inactive: -7.19% |
| COc1cc(C(=O)NCC2(N3CCCCC3)CCCCC2)ccc1OC(F)F | inactive: 1.64% |
| O=C(NCC1(N2CCOCC2)CCCCC1)c1cc(=O)[nH]c2ccccc12 | inactive: -8.19% |
| CCOc1ccc(C)cc1CN(CCCl)CCCl | inactive: 9.46% |
| O=C(NCC1(N2CCCCC2)CCCCC1)c1ccc(F)cc1 | inactive: -8.32% |
| COc1ccc(NC2CCN(CCc3ccccc3)CC2)c(OC)c1 | inactive: -16.4% |
| CCOC(=O)N1CCC(Nc2ccc(F)cc2)CC1 | inactive: 21.3% |
| COc1cc(C(=O)NCC2(N(C)C)CCCCC2)ccc1OC(F)F | inactive: -9.18% |

| Structure (SMILES) | activation |
| --- | --- |
| CCOC(=O)N1CCC(Nc2cccc(C)c2)CC1 | inactive: -4.85% |
| Cc1ccc(OCC(C)C)c(CN(CCCl)CCCl)c1 | inactive: 23% |
| O=C(NCC1(N2CCCCC2)CCCCC1)c1ccc(=O)[nH]c1 | inactive: -10.9% |
| O=C(NCC1(N2CCCCC2)CCCCC1)c1cccs1 | inactive: -11.4% |
| COc1ccc(C(=O)NCC2(N3CCCCC3)CCCCC2)cc1 | inactive: -1.12% |
| COc1ccc(C(=O)NCC2(N3CCCCC3)CCCCC2)c(OC)c1OC | inactive: -2.15% |
| CC(C)(C)OC(=O)N1CCC(N(C(=O)c2ccccc2)c2ccc(F)cc2)CC1 | inactive: -2.72% |
| CSc1ccccc1C(=O)NCC1(N2CCCCC2)CCCCC1 | inactive: -4.18% |
| O=C(NCC1(N2CCOCC2)CCCCC1)c1cc2ccccc2o1 | inactive: 31% |
| O=C(NCC1(N2CCCCC2)CCCCC1)c1ccc(Cl)nc1 | inactive: 0.527% |
| Cc1cc(C)cc(N(C(=O)c2ccccc2)C2CCN(C(=O)OC(C)(C)C)CC2)c1 | inactive: 3.61% |
| CCOC(=O)N1CCC(Nc2ccc(OC)cc2)CC1 | inactive: 0.891% |
| O=C(OC1CN2CCC1CC2)C1c2ccccc2Oc2ccccc21 (centres undefined) | inactive: 3.32% |
| N#CC1(Nc2ccccc2)CCN(Cc2ccccc2)CC1 | inactive: -0.679% |
| CCOc1ncccc1C(=O)NCC1(N2CCOCC2)CCCCC1 | inactive: 7.05% |
| CN1CCC(Nc2ccc(F)c(Cl)c2)CC1 | inactive: -1.48% |
| CCCOc1ccc(C(=O)NCC2(N(C)C)CCCCC2)cc1 | inactive: 47.1% |
| CC(C)(C)OC(=O)N1CCC(Nc2ccccc2)CC1 | inactive: 7.63% |
| O=C(O)C1(Nc2ccccc2)CCN(Cc2ccccc2)CC1 | inactive: -5.95% |
| CCC(CO)(C(=O)OC1CN2CCC1CC2)c1ccccc1 (centres undefined) | inactive: -9.9% |

| Structure (SMILES) | activation |
| --- | --- |
| COc1cc(OC)cc(C(=O)NCC2(N3CCOCC3)CCCCC2)c1 | inactive: -3.02% |
| COc1cccc(C(=O)N(c2cc(C)cc(C)c2)C2CCN(C(=O)OC(C)(C)C)CC2)c1 | inactive: 6.18% |
| CCCOc1ccc(C)cc1CN(CCCl)CCCl | inactive: 17.6% |
| CN1CCC(Nc2ccc(Cl)cc2)CC1 | inactive: -20.1% |
| COc1cc(OC)cc(C(=O)NCC2(N3CCCCC3)CCCCC2)c1 | inactive: 10.3% |
| Cc1ccc(C(=O)NCC2(N3CCCCC3)CCCCC2)o1 | inactive: -10.5% |
| Fc1ccccc1NC1CCN(Cc2ccccc2)CC1 | inactive: 5.78% |
| CCN1CCC(Nc2cccc(F)c2)CC1 | inactive: 1.17% |
| CN(C)c1ccc(C(=O)NCC2(N3CCCCC3)CCCCC2)cc1 | inactive: 0.272% |
| CC(C)(C)OC(=O)N1CCC(N(C(=O)c2ccccc2)c2ccc(Cl)cc2)CC1 | inactive: 7.39% |
| N#Cc1ccc(C(=O)NCC2(N3CCCCC3)CCCCC2)cc1 | inactive: -3.3% |
| c1ccc(CN2CCC(Nc3ccccc3)CC2)cc1 | inactive: -2.84% |
| CCCN1CCC(Nc2cc(OC)cc(OC)c2)CC1 | inactive: -19.2% |
| CN(C)C1(CNC(=O)c2cccc(C#N)c2)CCCCC1 | inactive: -5.52% |
| COc1ccc(C(=O)NCC2(N3CCOCC3)CCCCC2)cc1OC | inactive: -8.56% |
| N/C(=N\O)c1c(N)no[n+]1[O-] | inactive: -11% |
| CCOC(=O)N1CCC(Nc2ccc(C)cc2)CC1 | inactive: -7.87% |
| O=C(OC1CN2CCC1CC2)C1c2ccccc2C=Cc2ccccc21 (centres undefined) | inactive: -5.21% |
| CCc1cc(C(=O)NCC2(N3CCCCC3)CCCCC2)sc1C | inactive: -6.57% |
